## Binding of CDR-mutated scFvs to a peptide of the spike HR2 region

Target peptide (SARS-CoV-2 spike, HR2 region): PDVDLGDISGINAS

Ab-14 is the parent antibody, in scFv form: VH, then the linker GGGGSGGGGSGGGGS, then VL. The light chain is unchanged in all variants.
VH: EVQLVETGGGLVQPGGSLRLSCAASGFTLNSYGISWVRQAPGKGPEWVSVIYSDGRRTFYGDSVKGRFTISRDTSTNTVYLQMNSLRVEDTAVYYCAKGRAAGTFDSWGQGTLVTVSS
VL: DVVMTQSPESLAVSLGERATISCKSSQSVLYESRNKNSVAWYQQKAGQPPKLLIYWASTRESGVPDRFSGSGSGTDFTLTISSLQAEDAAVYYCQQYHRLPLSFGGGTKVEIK

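In library AAYL49, one, two or three CDR residues were substituted; doubles and triples were drawn at random. The scFvs were displayed on barcoded MATa yeast, the peptide on MATalpha yeast. Binding brings cells together so that they mate, and sequencing counts the barcode pairs among the diploids. The ratio of observed to expected reads was calibrated, replicate by replicate, on BCL2-family standards whose Kd was known from biolayer interferometry. There are three technical replicates.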

The parent's heavy chain CDRs are GFTLNSYGIS, VIYSDGRRTFYGDSVK, GRAAGTFDS; each variant's own CDRs replace them letter for letter. Scale: log10 of Kd in nM, estimated from mating counts; low values are strong binders. Where no diploid with the target was found in that replicate, the entry reads "ND": below detection, most likely a poor binder, though not proof of it. Empty control strains, which show no peptide, gave a signal in 15% of pairings with library AAYL49; the median was 4.06 and 95% of these signals were weaker than 2.83. No background was subtracted. The control count says in how many pairings with the empty strains this scFv gave a signal, with their mean in brackets. For reference, the parent read 0.65 as the reference entry and 4.11 (one replicate of three) as a member of this library.

{"CDR-H1": "GFTLNSYGIS", "CDR-H2": "VIYSDGERTYYGDSVK", "CDR-H3": "GRAAGTFDP", "log10 Kd (nM) by replicate": "ND ND ND", "signal with controls": "0/9"}
{"CDR-H1": "GFTLNSYGIS", "CDR-H2": "VIYSSGRRTFYGDVVK", "CDR-H3": "GRAMGTFDS", "log10 Kd (nM) by replicate": "ND ND ND", "signal with controls": "0/9"}
{"CDR-H1": "GFTLNSYGIS", "CDR-H2": "EIYSDTRRTFYGDSVK", "CDR-H3": "GRAAGTFDS", "log10 Kd (nM) by replicate": "ND ND ND", "signal with controls": "0/9"}
{"CDR-H1": "GFTLNSYGIS", "CDR-H2": "VIYSPNRRTFYGDSVK", "CDR-H3": "SRAAGTFDS", "log10 Kd (nM) by replicate": "ND ND 3.09", "signal with controls": "1/9 (4.42)"}
{"CDR-H1": "GFTLNSYGIS", "CDR-H2": "VIYSDGRRTFYGDSEK", "CDR-H3": "GRAAGIFDP", "log10 Kd (nM) by replicate": "ND ND ND", "signal with controls": "2/9 (4.57)"}
{"CDR-H1": "GFTLNSYGNS", "CDR-H2": "VIYSDGRRTFYGDSHK", "CDR-H3": "GRAAGTFDQ", "log10 Kd (nM) by replicate": "3.97 ND 4.89", "signal with controls": "3/9 (3.28)"}
{"CDR-H1": "GFTGNSYGIS", "CDR-H2": "VNYSDGRRTLYGDSVK", "CDR-H3": "GRAAGTFDS", "log10 Kd (nM) by replicate": "ND ND ND", "signal with controls": "1/9 (4.81)"}
{"CDR-H1": "GFTLNSYGWS", "CDR-H2": "VIIQDGRRTFYGDSVK", "CDR-H3": "GRAAGTFDS", "log10 Kd (nM) by replicate": "ND ND ND", "signal with controls": "0/9"}
{"CDR-H1": "GYTLNSYGIS", "CDR-H2": "KIYDDGRRTFYGDSVK", "CDR-H3": "GRAAGTFDS", "log10 Kd (nM) by replicate": "ND ND ND", "signal with controls": "0/9"}
{"CDR-H1": "GFTLNSYGIN", "CDR-H2": "VIYSDGRRWFYGDSVK", "CDR-H3": "GRAIGTFDS", "log10 Kd (nM) by replicate": "ND ND ND", "signal with controls": "0/9"}
{"CDR-H1": "GFTLNSYGIS", "CDR-H2": "VNYSKGRRTFYGDSVK", "CDR-H3": "GRAAGTFTS", "log10 Kd (nM) by replicate": "ND ND ND", "signal with controls": "1/9 (2.91)"}
{"CDR-H1": "GFTENSYGIT", "CDR-H2": "VIYSDGRRTFYGDSVK", "CDR-H3": "GRANGTFDS", "log10 Kd (nM) by replicate": "3.38 ND ND", "signal with controls": "3/9 (3.44)"}
{"CDR-H1": "GFTLNSYGIS", "CDR-H2": "VIYSDGRRTTYRDQVK", "CDR-H3": "GRAAGTFDS", "log10 Kd (nM) by replicate": "3.59 3.75 3.31", "signal with controls": "3/9 (3.57)"}
{"CDR-H1": "GFTLNSYGIS", "CDR-H2": "IIYSDGRRTFYGFSVK", "CDR-H3": "GRIAGTFDS", "log10 Kd (nM) by replicate": "4.35 4.25 4.01", "signal with controls": "7/9 (4.57)"}
{"CDR-H1": "GFTLNSYGIS", "CDR-H2": "VIRSDGRRTFKGDSVK", "CDR-H3": "GRMAGTFDS", "log10 Kd (nM) by replicate": "ND 4.66 5.66", "signal with controls": "3/9 (3.66)"}
{"CDR-H1": "GFTLNSYGRS", "CDR-H2": "VIPSDGRRTFYGDSVK", "CDR-H3": "GRAAGTFDE", "log10 Kd (nM) by replicate": "ND ND 4.35", "signal with controls": "6/9 (4.15)"}
{"CDR-H1": "GFTLNSYGIS", "CDR-H2": "VTYSDGRTTFYGDSVK", "CDR-H3": "GRAYGTFDS", "log10 Kd (nM) by replicate": "ND 4.16 5.03", "signal with controls": "0/9"}
{"CDR-H1": "GFTLNSYGIS", "CDR-H2": "VIYSDGRRWFHGDSVK", "CDR-H3": "GRAAGTFDS", "log10 Kd (nM) by replicate": "ND 4.21 ND", "signal with controls": "1/9 (2.76)"}
{"CDR-H1": "GFTLSSYGIS", "CDR-H2": "VIYSDGRRTWYGDSVK", "CDR-H3": "GRAAGKFDS", "log10 Kd (nM) by replicate": "5.04 3.50 ND", "signal with controls": "6/9 (4.63)"}
{"CDR-H1": "GFELNSYGIS", "CDR-H2": "VIYSDGRFTFYGDSVQ", "CDR-H3": "GRAAGTFDS", "log10 Kd (nM) by replicate": "ND 2.76 ND", "signal with controls": "0/9"}
{"CDR-H1": "GFTLNSYGIS", "CDR-H2": "VIYSDGRRTFAGDSVK", "CDR-H3": "GRAATTFDS", "log10 Kd (nM) by replicate": "3.39 3.02 3.82", "signal with controls": "2/9 (3.93)"}
{"CDR-H1": "GFTLNSYGIS", "CDR-H2": "VIYSDGRRTFYGDSVK", "CDR-H3": "GRVDGTFLS", "log10 Kd (nM) by replicate": "ND ND ND", "signal with controls": "0/9"}
{"CDR-H1": "GFTLNSYGIS", "CDR-H2": "VWYSDTRRTFYADSVK", "CDR-H3": "GRAAGTFDS", "log10 Kd (nM) by replicate": "ND ND ND", "signal with controls": "1/9 (4.21)"}
{"CDR-H1": "GFTLNSYGIT", "CDR-H2": "VIPSDGRRTFYGDSVK", "CDR-H3": "NRAAGTFDS", "log10 Kd (nM) by replicate": "6.49 3.75 4.93", "signal with controls": "5/9 (4.68)"}
{"CDR-H1": "GFTLNSYGIS", "CDR-H2": "VIYPDGRRTNYGDSFK", "CDR-H3": "GRAAGTFDS", "log10 Kd (nM) by replicate": "2.23 2.11 2.15", "signal with controls": "2/9 (5.02)"}
{"CDR-H1": "QFTLNSYGIS", "CDR-H2": "VINSDGRRTFYGDSVK", "CDR-H3": "GRAAGPFDS", "log10 Kd (nM) by replicate": "ND ND ND", "signal with controls": "0/9"}

3 of these entries, quoted again:

{"CDR-H1": "GFTLNSYGIT", "CDR-H2": "VIPSDGRRTFYGDSVK", "CDR-H3": "NRAAGTFDS", "log10 Kd (nM) by replicate": "6.49 3.75 4.93", "signal with controls": "5/9 (4.68)"}
{"CDR-H1": "GFTLNSYGWS", "CDR-H2": "VIIQDGRRTFYGDSVK", "CDR-H3": "GRAAGTFDS", "log10 Kd (nM) by replicate": "ND ND ND", "signal with controls": "0/9"}
{"CDR-H1": "GFTLSSYGIS", "CDR-H2": "VIYSDGRRTWYGDSVK", "CDR-H3": "GRAAGKFDS", "log10 Kd (nM) by replicate": "5.04 3.50 ND", "signal with controls": "6/9 (4.63)"}

From the AlphaSeq antibody data of Engelhart et al. 2022 (doi:10.1038/s41597-022-01779-4), copy in the FLAb collection.